Experiments:
drDXPS [1] = target: T1, drDXPS (Deinococcus radiodurans, UniProt Q9RUB5); assay: biochemical; assay type: binding
drDXPS [2] = target: T1, drDXPS; assay: biochemical

Protein sequences, listed by entry. Tags and fused reporters are not part of them. Lines headed by an entry give the natural chain unless they say otherwise; changes in a name come on top.
UniProt Q9RUB5: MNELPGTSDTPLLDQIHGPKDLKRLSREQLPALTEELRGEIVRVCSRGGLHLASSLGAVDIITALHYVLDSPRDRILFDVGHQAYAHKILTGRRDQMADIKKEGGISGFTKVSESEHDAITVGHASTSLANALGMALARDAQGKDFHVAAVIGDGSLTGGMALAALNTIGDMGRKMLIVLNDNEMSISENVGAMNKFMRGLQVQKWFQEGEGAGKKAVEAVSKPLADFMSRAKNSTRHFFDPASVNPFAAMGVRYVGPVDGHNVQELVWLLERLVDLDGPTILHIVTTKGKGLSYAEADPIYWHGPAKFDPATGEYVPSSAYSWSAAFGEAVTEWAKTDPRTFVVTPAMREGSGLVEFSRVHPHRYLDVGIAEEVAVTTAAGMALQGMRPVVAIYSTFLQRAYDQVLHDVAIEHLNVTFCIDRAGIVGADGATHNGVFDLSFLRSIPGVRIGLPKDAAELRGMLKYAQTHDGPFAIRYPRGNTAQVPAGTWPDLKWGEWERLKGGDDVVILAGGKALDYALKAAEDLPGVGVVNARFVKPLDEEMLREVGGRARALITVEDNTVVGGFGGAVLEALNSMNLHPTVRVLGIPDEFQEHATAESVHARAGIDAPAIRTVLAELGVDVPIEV

O=C(CCCOc1ccc(Cl)cc1Cl)N/N=C/c1ccc(O)cc1F [Compound 23]
Kd (drDXPS [1]): 160 ± 50 µM
IC50 (drDXPS [2]): 34 µM

Reference: article PMC8188608 (Chemical Science, 2021)
